# In patent US11059815B2, “Synthesis of small molecule histone deacetylase 6 degraders, compounds formed thereby, and pharmaceutical compositions containing them” (Wisconsin Alumni Research Foundation, priority 2018, dated 2021):
# The chains behind the UniProt entries cited, without tags or fusion partners.
# UniProt Q9UBN7, whole entry: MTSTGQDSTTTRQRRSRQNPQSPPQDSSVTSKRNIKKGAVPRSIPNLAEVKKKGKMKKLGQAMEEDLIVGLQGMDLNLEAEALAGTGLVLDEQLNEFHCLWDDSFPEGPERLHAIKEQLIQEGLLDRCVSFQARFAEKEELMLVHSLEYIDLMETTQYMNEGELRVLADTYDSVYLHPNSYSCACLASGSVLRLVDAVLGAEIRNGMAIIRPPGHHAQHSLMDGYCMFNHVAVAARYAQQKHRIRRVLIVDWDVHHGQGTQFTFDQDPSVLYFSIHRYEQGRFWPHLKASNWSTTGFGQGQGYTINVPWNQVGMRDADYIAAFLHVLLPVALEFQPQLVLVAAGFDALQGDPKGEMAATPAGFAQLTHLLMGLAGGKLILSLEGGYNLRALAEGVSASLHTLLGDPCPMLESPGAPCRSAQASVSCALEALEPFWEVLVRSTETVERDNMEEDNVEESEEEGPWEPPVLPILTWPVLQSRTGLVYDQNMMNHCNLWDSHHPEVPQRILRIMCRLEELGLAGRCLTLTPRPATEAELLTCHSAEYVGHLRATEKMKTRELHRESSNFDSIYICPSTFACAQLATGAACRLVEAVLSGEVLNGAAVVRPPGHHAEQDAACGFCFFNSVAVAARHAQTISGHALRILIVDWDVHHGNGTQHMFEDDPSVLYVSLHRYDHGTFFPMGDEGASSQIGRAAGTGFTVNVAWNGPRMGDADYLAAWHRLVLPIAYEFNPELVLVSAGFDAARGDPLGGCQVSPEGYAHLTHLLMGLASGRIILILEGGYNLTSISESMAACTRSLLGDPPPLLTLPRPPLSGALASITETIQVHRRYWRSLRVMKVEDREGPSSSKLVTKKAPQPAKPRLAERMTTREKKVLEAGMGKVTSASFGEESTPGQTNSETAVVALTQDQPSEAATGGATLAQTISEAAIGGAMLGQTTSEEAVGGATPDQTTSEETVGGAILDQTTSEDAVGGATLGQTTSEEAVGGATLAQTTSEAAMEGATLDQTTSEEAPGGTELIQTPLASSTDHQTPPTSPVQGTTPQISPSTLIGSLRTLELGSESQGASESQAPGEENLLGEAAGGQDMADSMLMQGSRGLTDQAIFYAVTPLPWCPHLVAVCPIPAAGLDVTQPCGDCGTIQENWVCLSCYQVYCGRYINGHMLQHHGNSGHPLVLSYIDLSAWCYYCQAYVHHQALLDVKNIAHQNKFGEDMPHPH
# Target: HDAC6 (Homo sapiens, UniProt Q9UBN7)
# Test: Immunoblot of HDAC degradation in MCF-7 cells
# Conditions: 12 h
# Procedure: FIG. 3A: Immunoblot of whole cell lysate after MCF-7 cells were treated with 5 μM of 9a-9d for 12 h.
# FIG. 3B: Immunoblot of whole cell lysate after MCF-7 cells were treated with 9c at various concentrations (5 nM to 10 μM) for 12 h.
# FIG. 3C: Band intensity of the immunoblot shown in FIG. 3B calculated using “Image J” software (a public domain, Java-based image processing program developed at the National Institutes of Health and only available online at https://imagej.nih.gov/ij/) and curve-fit and graphed using GraphPad's “Prism”-brand software (GraphPad Software, Inc. La Jolla, Calif.).
# The activity and selectivity of HDAC degraders 9a-9d was tested in cell-based assays against different HDACs. […] The degradation of HDAC6 induced by compound 9c led to the increase of acetylated tubulin as expected from the initial results. The concentration at which half-maximal degradation was achieved (DC50) and the maximum percentage of degradation (Dmax) were 34 nM and 70.5% respectively. […] Douglass, E. F.; Miller, C. […]
# When the cells reached 90% confluence, they were harvested and plated 1×10^6 cells per well in 6-well plate. […] Protein concentration was measured by using the Pierce BCA protein assay (Thermo Fisher Scientific). […] The Immunoblot was generated by ChemiDoc MP Imaging Systems (Bio-Rad) and analyzed by Image J software (only available for download online at https://imagej.net/Downloads). […]
compound,measurement,setting,value
O=C(CCCCCCC(=O)N/N=C/c1ccc(OCCOCCOCCn2cc(CNc3cccc4c3C(=O)N(C3CCC(=O)NC3=O)C4=O)nn2)cc1)NO (centres unmarked) [Compound 1],concentration of maximal degradation effect (hook effect above),,around 300 nM
same,Dmax (maximum percentage of degradation),immunoblot band intensity,70.5%
